Source: patent US20220323583A1, “Pharmaceutical Formulations of Bi-Specific Diabodies and Use of the Same” (MacroGenics, Inc., priority 2019, published 2022)

System: Pseudomonas aeruginosa (ATCC 9027)
Assay: Microbial challenge testing
Assay type: cell-based
Experimental: The single ambulatory pump dose preparation scheme and administration configuration was simulated. […] Ten vials of reconstituted Pseudomonas aeruginosa (ATCC 9027) were pooled before being aliquoted to create the final formulations. To samples were collected from the mixing bottles upon completion of the formulation preparation steps. Corresponding pump cassettes were filled with the remaining stabilizer solutions and incubated at 32±2° C. The 24-hour and 48-hour time points were thoroughly mixed within the cassettes to ensure a uniform P. aeruginosa suspension before sample collection. After collection, samples were immediately subjected to bioburden testing. The microbial challenge testing results can be seen below in Table 16.
For the study, the single ambulatory pump dose preparation scheme was simulated. P. aeruginosa and C. albicans microbes were reconstituted and pooled before being added to the final dosing solutions. Each solution was added to its corresponding cassette and To samples were collected immediately upon cassette filling. This procedure accounted for any changes in microbial growth patterns that may be associated with syringe stress exposure. After To collection, corresponding cassettes were incubated at 32±2° C. The 24-, 72- and 168-hour time points were thoroughly mixed to ensure a uniform microbe suspension before sample collection. […]

rHA: recombinant human albumin, blocking agent
effect of rHA in the stabilizer solution on microbial growth: does not affect microbial growth
